# Data from patent publication US10517867B2, “Posaconazole derivative, pharmaceutical composition and use thereof” (priority 2016, dated 2019).
# Assay: Determination of solubility in deionized water (HPLC, external standard)
# Conditions: 25±2° C., after 30 min
row,SMILES,Solubility [mg/mL]
1,CC[C@@H]([C@H](C)OC(=O)OC(C)OC(=O)CN(C)C(=N)NP(=O)([O-])[O-])n1ncn(-c2ccc(N3CCN(c4ccc(OC[C@@H]5CO[C@@](Cn6cncn6)(c6ccc(F)cc6F)C5)cc4)CC3)cc2)c1=O.[Na+].[Na+] (some centres unmarked),45.8
2,CC[C@@H]([C@H](C)OC(=O)OC(C)OC(=O)CNC(=O)CN(C)C(=N)NP(=O)([O-])[O-])n1ncn(-c2ccc(N3CCN(c4ccc(OC[C@@H]5CO[C@@](Cn6cncn6)(c6ccc(F)cc6F)C5)cc4)CC3)cc2)c1=O.[Na+].[Na+] (some centres unmarked),>50
